ChEMBL document CHEMBL4699501, “Dihydrodibenzothiepine: Promising hydrophobic pharmacophore in the influenza cap-dependent endonuclease inhibitor” (Bioorg Med Chem Lett, 2020)
pIC50: −log10 of the molar value.

Experiment: Inhibition of Influenza virus Cap-dependent endonuclease
Set-up: species or system Influenza A virus

Row | Compound | pIC50
1 | CC(CN(C)C)N1CN(C2c3ccccc3CSc3ccccc32)n2ccc(=O)c(O)c2C1=O (configuration not stated) | 6.82
2 | CC(C)N1CN(C2c3ccccc3COc3ccccc32)n2ccc(=O)c(O)c2C1=O (configuration not stated) | 6.58
